Experimental data: patent US20110015371A1 (Vertex Pharmaceuticals Incorporated, priority 1994, published 2011)

System: Human Peripheral Blood Mononuclear Cells (PBMC) or Enriched Adherent Mononuclear Cells
Test: Cell assay: IL-1β assay with human PBMC or enriched adherent mononuclear cells
Settings: read-out: Cell IC50; Example 6 table; LPS-stimulated cells, mature IL-1β in supernatant by ELISA

SMILES: CCC(=O)[C@H](CC(=O)O)NC(=O)Cn1c(Cc2ccccc2)ccc(NC(=O)CCc2ccccc2)c1=O
- IC50: 30 µM
